{"source": "ChEMBL document CHEMBL3228013", "about": "(J Med Chem, 1979)", "key": {"[1]": {"assay": "Half life of the compound in 1:1 H2O:ethylalcohol containing at 1 x 10^-1 M NaOH at 1 x 10^-5 M by UV-spectroscopy", "conditions": "10 µM; call rule not given here"}, "[2]": {"assay": "Half life of the compound in 1:1 H2O:ethylalcohol containing at 1 M NaOH at 1 x 10^-5 M by UV-spectroscopy", "conditions": "10 µM"}, "[3]": {"assay": "Half life of the compound in 1:1 H2O:ethylalcohol containing at 8.3 x 10^-3 M NaOH at 8.3 x 10^-5 M by UV-spectroscopy", "conditions": "83 µM"}, "[4]": {"assay": "Half life of the compound in 1:1 H2O:ethylalcohol containing at 4 x 10^-2 M NaOH at 1 x 10^-5 M by UV-spectroscopy", "conditions": "10 µM"}, "[5]": {"assay": "Half life of the compound in 1:1 H2O:ethylalcohol containing at 5 x 10^-1 M NaOH at 1 x 10^-5 M by UV-spectroscopy", "conditions": "10 µM"}, "[6]": {"assay": "Drug metabolism assessed as wheat germ orthophosphoric monoester phosphohydrolase-mediated hydrolysis at 0.3 mM by UV spectroscopy", "conditions": "triticum aestivum, 300 µM"}, "[7]": {"assay": "Half life of the compound in 1:1 H2O:ethylalcohol containing at 2 x 10^-2 M NaOH at 1 x 10^-5 M by UV-spectroscopy", "conditions": "10 µM"}, "[8]": {"assay": "Inhibition of wheat germ orthophosphoric monoester phosphohydrolase using 2-carboxyphenyl phosphate as substrate at 0.3 mM after 2 hrs by UV spectroscopy", "conditions": "triticum aestivum, 300 µM"}, "[9]": {"assay": "Half life of the compound in 1:1 H2O:ethylalcohol containing at 7.50 x 10^-1 M NaOH at 1 x 10^-5 M by UV-spectroscopy", "conditions": "10 µM"}}, "data": [{"smiles": "NP(=O)(Oc1ccc([N+](=O)[O-])cc1)N(CCCl)CCCl", "note": "(centres undefined)", "values": [{"measurement": "t1/2", "setting": "[1]", "value": 2.67, "unit": "min"}, {"measurement": "t1/2", "setting": "[2]", "value": 0.267, "unit": "min"}, {"measurement": "t1/2", "setting": "[3]", "value": 9.83, "unit": "min"}, {"measurement": "t1/2", "setting": "[4]", "value": 5.25, "unit": "min"}, {"measurement": "t1/2", "setting": "[5]", "value": 0.5, "unit": "min"}, {"measurement": "Stability", "setting": "[6]", "value": "Stable"}, {"measurement": "t1/2", "setting": "[7]", "value": 11.7, "unit": "min"}, {"measurement": "inhibition (INH)", "setting": "[8]", "value": "Not Active"}, {"measurement": "t1/2", "setting": "[9]", "value": 0.317, "unit": "min"}]}]}
